Like-named read-outs stand apart in the source and are kept apart here.
Legend:
[1] = biological target: T1, Mouse TLR7 (Mus musculus, UniProt P58681); test: Short-term in vivo (STIV) assay: plasma IL-6 after s.c. R848
Method: Figure Legend: Female BALB/c mice were dosed by oral gavage with Vehicle alone (0.5% aqueous methyl-cellulose) or compound ER-892887 formulated in Vehicle at 100 mg/kg or 300 mg/kg. At 13 or 24 hours following oral dosing, mice were injected subcutaneously with 15 ug R848 to stimulate TLR7. Blood plasma was collected by cardiac puncture, and the IL-6 level at 1.5 hours after TLR7 stimulation was then assessed by standard ELISA procedure. Percent suppression indicated is relative to IL-6 induction following Vehicle control dosing. Statistical significance was determined by Mann-Whitney test.
To assess compound potency in vivo against mouse TLR7, a short-term in vivo (STIV) assay was utilized. Briefly, mice were orally dosed with compounds and at various time points afterwards were injected subcutaneously with agonist R848 to stimulate TLR7. The plasma IL-6 level following R848 stimulation was then measured by ELISA to assess compound potency and duration-of-action. […] Therefore, the activity of compounds in the STIV assay can be confidently attributed to their modulation of the TLR7 pathway. A single oral dose of ER-892887 at 300 mg/kg suppresses the R848/TLR7/IL-6 pathway in vivo by 80-90% for at least 24 hours (see FIG. 1).
Six to eight week old female BALB/c mice (Jackson Labs, Bar Harbor, Me.) were dosed by oral gavage in 200 ul volume with antagonist compounds formulated in 0.5% aqueous methyl-cellulose (Sigma, St. Louis, Mo.). At various time points afterwards, mice were injected subcutaneously (s.c.) in 100 ul volume with 15 ug R848 (Resiquimod; GLSynthesis, Worcester, Mass.) to stimulate TLR7. Blood plasma was collected by cardiac puncture, and levels of IL-6 at 1.5 hours after TLR7 stimulation were then assessed by standard ELISA procedure according to the manufacturer's recommended protocol (R&D Systems).

The chains behind the UniProt entries cited, without tags or fusion partners. Residues count along the entry.
UniProt P58681, 27-1050 limits assumed: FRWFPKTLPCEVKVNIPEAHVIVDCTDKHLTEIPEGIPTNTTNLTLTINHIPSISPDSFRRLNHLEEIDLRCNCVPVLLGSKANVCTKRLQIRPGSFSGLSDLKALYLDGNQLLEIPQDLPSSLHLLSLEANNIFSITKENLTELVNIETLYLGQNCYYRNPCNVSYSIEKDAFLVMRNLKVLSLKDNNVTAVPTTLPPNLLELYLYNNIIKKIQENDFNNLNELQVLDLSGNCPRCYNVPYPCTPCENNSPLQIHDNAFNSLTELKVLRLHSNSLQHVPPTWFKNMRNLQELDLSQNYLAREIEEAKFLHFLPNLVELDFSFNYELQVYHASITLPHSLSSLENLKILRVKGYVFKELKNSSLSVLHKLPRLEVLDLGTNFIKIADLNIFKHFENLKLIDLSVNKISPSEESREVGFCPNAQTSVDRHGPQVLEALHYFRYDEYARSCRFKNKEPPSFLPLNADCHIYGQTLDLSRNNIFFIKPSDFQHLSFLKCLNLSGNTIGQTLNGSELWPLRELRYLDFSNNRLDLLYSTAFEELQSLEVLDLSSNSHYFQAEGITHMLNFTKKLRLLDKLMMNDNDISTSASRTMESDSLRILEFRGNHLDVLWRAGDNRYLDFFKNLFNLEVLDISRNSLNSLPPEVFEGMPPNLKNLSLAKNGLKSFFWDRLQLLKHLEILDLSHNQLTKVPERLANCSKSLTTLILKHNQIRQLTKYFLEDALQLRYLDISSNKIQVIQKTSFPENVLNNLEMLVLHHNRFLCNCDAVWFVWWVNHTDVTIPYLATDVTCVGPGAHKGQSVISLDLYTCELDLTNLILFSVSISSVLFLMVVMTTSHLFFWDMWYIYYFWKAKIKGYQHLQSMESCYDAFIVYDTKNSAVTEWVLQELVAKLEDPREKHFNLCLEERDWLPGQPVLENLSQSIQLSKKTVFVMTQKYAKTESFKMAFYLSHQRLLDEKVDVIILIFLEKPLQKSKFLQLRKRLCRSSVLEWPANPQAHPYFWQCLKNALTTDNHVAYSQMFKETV
UniProt Q9NR97, 27-1041 limits assumed: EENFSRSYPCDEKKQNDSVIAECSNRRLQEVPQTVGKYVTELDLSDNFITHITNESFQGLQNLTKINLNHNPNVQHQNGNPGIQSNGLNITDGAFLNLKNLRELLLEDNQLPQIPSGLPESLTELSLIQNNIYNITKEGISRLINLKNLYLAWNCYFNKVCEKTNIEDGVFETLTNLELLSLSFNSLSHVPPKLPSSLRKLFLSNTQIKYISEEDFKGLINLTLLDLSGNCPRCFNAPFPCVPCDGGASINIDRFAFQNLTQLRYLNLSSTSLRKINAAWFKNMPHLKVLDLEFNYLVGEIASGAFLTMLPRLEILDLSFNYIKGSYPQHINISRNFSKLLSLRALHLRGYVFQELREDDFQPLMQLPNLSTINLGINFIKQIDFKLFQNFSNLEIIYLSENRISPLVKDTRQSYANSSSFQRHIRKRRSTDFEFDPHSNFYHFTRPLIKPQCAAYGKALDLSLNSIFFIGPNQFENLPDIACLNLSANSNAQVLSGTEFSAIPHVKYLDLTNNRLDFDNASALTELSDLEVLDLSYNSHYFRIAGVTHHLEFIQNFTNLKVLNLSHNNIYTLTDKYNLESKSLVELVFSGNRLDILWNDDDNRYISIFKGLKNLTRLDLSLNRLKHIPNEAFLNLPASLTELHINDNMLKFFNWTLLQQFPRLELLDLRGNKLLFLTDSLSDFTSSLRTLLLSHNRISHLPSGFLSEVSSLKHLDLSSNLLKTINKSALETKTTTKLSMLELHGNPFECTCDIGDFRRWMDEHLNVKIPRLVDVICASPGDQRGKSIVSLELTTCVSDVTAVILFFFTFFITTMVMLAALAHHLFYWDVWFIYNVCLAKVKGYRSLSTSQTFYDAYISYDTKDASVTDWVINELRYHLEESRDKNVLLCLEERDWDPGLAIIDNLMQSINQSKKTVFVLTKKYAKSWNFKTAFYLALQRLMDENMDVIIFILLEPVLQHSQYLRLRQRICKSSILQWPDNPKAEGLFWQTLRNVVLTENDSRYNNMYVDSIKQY

[2] = biological target: T1, Mouse TLR7; test: Mouse spleen cell-based assay, R848 stimulus, IL-6 ELISA; settings: read-out: Mouse Splenocyte IC50, Mouse Splenocyte IL-6 Inhibition (R848 Ligand)
Method: Spleens were harvested from female BALB/c mice (Jackson Labs, Bar Harbor, Me.) euthanized by CO2. A single cell suspension was obtained by passing spleens through a 40 μm nylon cell strainer. Cells were washed twice with 50 ml PBS (Mediatech, Inc., Manassas, Va.) and red blood cells were lysed in 5 ml RBC Lysis buffer (eBioscience, Inc., San Diego, Calif.) for 5 minutes at room temperature. Cells were washed twice more in PBS and finally resuspended in supplemented RPMI-1640 at 2.5×10^6 cells/ml. Cells were plated at 100 μl/well (2.5×10^5 cells/well) in 96-well tissue culture treated plates (Falcon). Serial dilutions of compounds solubilized in 100% DMSO were added in triplicate to cells to yield a final concentration of 0.1% DMSO. Cells were incubated with compound for 30 minutes at 37° C., 5% CO2 before adding 100 μl/well of 740 nM R848 (Resiquimod; GLSynthesis, Worcester, Mass.) in complete media for a final concentration of 370 nM R848. Cells were incubated for 20 hours at 37° C., 5% CO2. Culture supernatants were collected, and levels of IL-6 were assessed by standard ELISA procedure according to the manufacturer's recommended protocol (BD Biosciences, Inc., San Diego, Calif.).

[3] = test system: Human TLR7/8; test: Human PBMC cell-based assay, RNA-Ig (SL4-Ig) stimulus, cytokine ELISA; settings: read-out: Human PBMC IC50, Human PBMC IL-6 Inhibition (SL4-Ig Ligand)
[4] = biological target: Human TLR8 (Homo sapiens, UniProt Q9NR97); test: HEK-293 NF-kappaB luciferase reporter assay, CL097 stimulus; type: cell-based; settings: read-out: HEK/TLR8 IC50; human TLR8 in the HEK-293 assay format
Excerpt: In vitro pharmacology: HEK-293 cells (ATCC) were engineered to stably express a NF-kappaB transcription factor inducible E-selectin (ELAM-1) luciferase reporter derived from the plasmid pGL3 (Promega) containing base pairs −2241 bp to −254 bp from the promoter of the human E-selectin gene (Accession No. NM_000450). These cells were then subsequently engineered to stably and individually express human TLR4, TLR7 or TLR9 full-length ORF cDNAs. Human TLR4 cDNA (Accession No. NM_138554) was cloned into pcDNA 3.0 expression vector (Invitrogen). TLR4 transfected cells were also engineered to express human MD-2 co-receptor [MD-2 cDNA (Accession No. NM_015364) was cloned into the pEF-BOS vector] and were supplemented with 10 nM soluble CD14 (R&D Systems) in the media to optimize LPS responsiveness. Human TLR9 cDNA (Accession No. NM_017442) was cloned into the pBluescript II KS vector (Agilent). Human TLR7 cDNA (Accession No. NM_016562) was obtained from OriGene. HEK-293 cells stably expressing human TLR8 (Accession No. NM_138636) or mouse TLR7 (Accession No. NM_133211) were purchased from InvivoGen and were then stably transfected with pNiFty2(NF-kappaB)-luciferase reporter plasmid (InvivoGen). Each cell type was plated in Dulbecco's modified Eagle's medium (DMEM) containing 10% fetal bovine serum (FBS) at a density of 2.22×10^5 cells/ml into a 384-well plate and incubated for 2 days at 37° C., 5% CO2. Varying concentrations of antagonist compounds were then added. Cells were then incubated for another 30 minutes before adding the appropriate TLR agonist as follows (final concentrations indicated): lipopolysaccharide (LPS; Sigma) at 10 ng/ml for TLR4, CL097 (InvivoGen) at 3 ug/ml for human TLR7 and TLR8 and mouse TLR7, and CpG-2006-2A [sequence: […] (SEQ ID NO: 1) with phosphorothioate backbone, synthesized by Sigma-Aldrich] at 0.6 uM for TLR9.

[5] = time point 6 hr, dose 33 mg/kg oral, tested form: HCl
[6] = time point 13 hr, dose 33 mg/kg oral, tested form: HCl
[7] = time point 13 hr, dose 100 mg/kg oral, tested form: HCl
[8] = time point 13 hr, dose 300 mg/kg oral, tested form: HCl
[9] = time point 24 hr, dose 33 mg/kg oral, tested form: HCl
[10] = time point 24 hr, dose 100 mg/kg oral, tested form: HCl
[11] = time point 24 hr, dose 300 mg/kg oral, tested form: HCl
[12] = time point 3 hr, dose 100 mg/kg oral
[13] = time point 6 hr, dose 33 mg/kg oral
[14] = time point 6 hr, dose 100 mg/kg oral

| % Suppression vs. Vehicle [1, 5] | % Suppression vs. Vehicle [1, 6] | % Suppression vs. Vehicle [1, 7] | % Suppression vs. Vehicle [1, 8] | % Suppression vs. Vehicle [1, 9] | % Suppression vs. Vehicle [1, 10] | % Suppression vs. Vehicle [1, 11] | IC50 ([2]; tested form: HCl) | IC50 [2] | IC50 [4] | Compound | other results |
| --- | --- | --- | --- | --- | --- | --- | --- | --- | --- | --- | --- |
|  |  |  |  |  |  |  |  | 280 nM | 140 nM | COc1ccc([C@@H]2C[C@H](C(F)(F)F)n3nc(-c4ccc(C(N)=O)cc4F)cc3N2)cc1OC | % Suppression vs. Vehicle [1, 12]: 96%; % Suppression vs. Vehicle [1, 13]: 86%; % Suppression vs. Vehicle [1, 14]: 94%; % Suppression vs. Vehicle ([1]; time point 19 hr, dose 33 mg/kg oral): 49%; % Suppression vs. Vehicle ([1]; time point 19 hr, dose 100 mg/kg oral): 52%; IC50 [3]: 879 nM |
|  |  |  |  |  |  |  |  |  | 70 nM | COc1cc(-c2cc3n(n2)[C@@H](C(F)(F)F)C[C@@H](c2ccc(OC)c(OC)c2)N3)ccn1 |  |
|  |  |  |  |  |  |  |  | 230 nM |  | COc1ccc([C@@H]2C[C@H](C(F)(F)F)n3nc(-c4ccc5[nH]ncc5c4C)cc3N2)cc1OC | % Suppression vs. Vehicle [1, 12]: 98%; % Suppression vs. Vehicle [1, 13]: 98%; % Suppression vs. Vehicle [1, 14]: 98%; % Suppression vs. Vehicle ([1]; time point 13 hr, dose 33 mg/kg oral): 4%; % Suppression vs. Vehicle ([1]; time point 13 hr, dose 100 mg/kg oral): 95% |
|  |  |  |  |  |  |  |  |  | > 10000 nM | COc1ccc([C@@H]2C[C@H](C(F)(F)F)n3nc(-c4cccc(NC(C)=O)c4)cc3N2)cc1OC [ER-887738-00] |  |
|  |  |  |  |  |  |  |  | 448 nM |  | COc1ccc([C@@H]2C[C@H](C(F)(F)F)n3nc(-c4cc5cn[nH]c5cc4C)cc3N2)cc1OC |  |

Second part, the molecule before the results:

| Compound | % Suppression vs. Vehicle [1, 5] | % Suppression vs. Vehicle [1, 6] | % Suppression vs. Vehicle [1, 7] | % Suppression vs. Vehicle [1, 8] | % Suppression vs. Vehicle [1, 9] | % Suppression vs. Vehicle [1, 10] | % Suppression vs. Vehicle [1, 11] | IC50 ([2]; tested form: HCl) | IC50 [2] | IC50 [4] | other results |
| --- | --- | --- | --- | --- | --- | --- | --- | --- | --- | --- | --- |
| COc1ccc([C@@H]2C[C@H](C(F)(F)F)n3nc(-c4ccc(C(=O)N5CC(N)C5)cc4)cc3N2)cc1OC | 71% | 33% | 43% | 96% | 35% | 13% | 45% | 182 nM |  |  | IC50 ([3]; tested form: HCl): 17 nM |
| COc1ccc([C@@H]2C[C@H](C(F)(F)F)n3nc(-c4ccc(C(=O)NC5CNC5)cc4)cc3N2)cc1OC | 35% | 34% | 56% | 81% | 25% | 39% | 70% | 306 nM |  |  |  |
| COc1ccc([C@@H]2C[C@H](C(F)(F)F)n3nc(-c4ccc(C(=O)N[C@H]5CCNC5)cc4)cc3N2)cc1OC | 0% | 0% | 28% | 8% | 0% | 0% | 3% | 175 nM |  |  | IC50 ([3]; tested form: HCl): 71 nM |
| Cc1nn(C)cc1[C@@H]1C[C@H](C(F)(F)F)n2nc(-c3ccc(NC(N)=O)cc3)cc2N1 (relative stereo) |  |  |  |  |  |  |  |  | 3940 nM | 460 nM | IC50 [3]: 1950 nM |
